The chains behind the UniProt entries cited, without tags or fusion partners.
UniProt P25103, whole entry: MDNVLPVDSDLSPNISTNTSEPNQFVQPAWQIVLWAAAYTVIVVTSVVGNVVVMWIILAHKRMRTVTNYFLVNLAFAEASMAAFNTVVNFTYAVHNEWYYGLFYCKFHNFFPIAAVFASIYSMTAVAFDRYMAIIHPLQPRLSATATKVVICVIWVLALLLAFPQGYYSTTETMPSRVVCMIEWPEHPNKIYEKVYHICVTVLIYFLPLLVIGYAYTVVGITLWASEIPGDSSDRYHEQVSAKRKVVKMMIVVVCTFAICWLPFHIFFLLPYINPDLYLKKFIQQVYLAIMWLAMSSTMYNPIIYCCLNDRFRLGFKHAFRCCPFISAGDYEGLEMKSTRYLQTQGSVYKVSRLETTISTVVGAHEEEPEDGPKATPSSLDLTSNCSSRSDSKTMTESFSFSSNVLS

In ChEMBL document CHEMBL1133521, “Multiple-conformation and protonation-state representation in 4D-QSAR: the neurokinin-1 receptor system” (J Med Chem, 2000):

Target: Substance-P receptor (Homo sapiens, UniProt P25103)
Assay: Inhibitory activity against Tachykinin receptor 1

SMILES: COc1ccccc1C(C1CCCCN1C(=O)c1cc(C(F)(F)F)cc(C(F)(F)F)c1)N1CCC(N2CCCCC2)CC1 (stereo unspecified)
- IC50: 12 nM
